Data: US12643907B2 (priority 2020, dated 2026)

Sequences of proteins named here, by UniProt entry; tags and fusion partners are left off.
UniProt P35372, whole entry: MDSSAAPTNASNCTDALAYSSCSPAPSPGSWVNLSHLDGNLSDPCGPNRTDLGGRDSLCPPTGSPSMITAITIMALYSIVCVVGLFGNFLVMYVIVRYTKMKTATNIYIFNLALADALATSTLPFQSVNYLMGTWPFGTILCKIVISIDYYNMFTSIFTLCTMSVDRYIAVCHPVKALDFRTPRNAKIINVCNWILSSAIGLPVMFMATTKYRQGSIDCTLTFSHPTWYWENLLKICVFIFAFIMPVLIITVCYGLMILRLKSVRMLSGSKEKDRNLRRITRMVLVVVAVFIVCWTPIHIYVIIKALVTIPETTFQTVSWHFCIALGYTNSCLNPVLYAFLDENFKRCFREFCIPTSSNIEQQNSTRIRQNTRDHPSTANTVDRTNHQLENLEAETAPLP

Key:
MOR [1] = molecular target: T1, MOR (Homo sapiens, UniProt P35372); assay: Irreversible binding: 3H-Diprenorphine binding after compound washed away 5 times
MOR [2] = molecular target: T1, MOR; assay: Arrestin recruitment functional assay; settings: FIG. 2C
MOR [3] = molecular target: T1, MOR; assay: G protein recruitment functional assay; settings: FIG. 2B
C57BL/6J mice = assay: CLAMS: fentanyl-induced respiratory depression and ambulation; settings: s.c.
MOR [4] = molecular target: T1, MOR
[5] = 30 mg/kg, 2 hour pretreatment, listed as TJ-3-345

CO[C@]12CC[C@@]3(C[C@@H]1C(C)(C)O)[C@H]1Cc4ccc(O)c5c4[C@@]3(CCN1CC1CC1)[C@H]2O5
irreversible MOR attachment / inhibition (in words) (MOR [1]; in vitro, blocks binding of other ligands after washing 5 times): not

C=CCN1CCC23c4c5ccc(O)c4OC2C(N(C)CCS(=O)(=O)F)CCC3(O)C1C5 (racemic) [TJ-345]
arrestin recruitment activity (MOR [2]): without any detectable
partial agonism, G protein recruitment (MOR [3]): < 10 % Emax
duration of nearly full blockade of radioligand 3H-Diprenorphine binding (MOR [1]; after compound was washed away 5 times (FIG. 3)): > 48 h
fentanyl-induced hyperlocomotion (C57BL/6J mice; 30 mg/kg, 2 hour pretreatment): significantly reverses
fentanyl-induced hyperlocomotion (C57BL/6J mice; [5]): significantly reversed
fentanyl-induced respiratory depression (C57BL/6J mice; [5]): significantly reversed
Ki (MOR [4]): 15 nM

C=CCN1CC[C@]23c4c5ccc(O)c4O[C@H]2[C@H](N(C)CCS(=O)(=O)F)CC[C@@]3(O)C1C5 [TJ-171]
fentanyl-induced respiratory depression and ambulation (C57BL/6J mice; 30 mg/kg, pretreatment of 2 h): ameliorated
fentanyl-induced respiratory depression and ambulation (C57BL/6J mice; 30 mg/kg, pretreatment of 24 h): ameliorated
reversal of fentanyl-induced hyperlocomotion (C57BL/6J mice; administered at 21 min after fentanyl, 30 or 45 mg/kg): dose-dependently reversed
